For the assay, the target named is EGFR T790M L858R (Homo sapiens, UniProt P00533, L858R/T790M). Put plainly: biochemical. The conditions noted are these: EGFR(T790M/L858R) Ki (μM), 5 μM ATP, 30 min, room temperature; apparent Ki (Morrison) converted by Cheng-Prusoff, Km of ATP 1.3 μM.

By UniProt entry, the sequences of proteins in these tests, tags left out. Residues count along the entry.
UniProt P00533, 25-1210 T790M/L858R limits assumed: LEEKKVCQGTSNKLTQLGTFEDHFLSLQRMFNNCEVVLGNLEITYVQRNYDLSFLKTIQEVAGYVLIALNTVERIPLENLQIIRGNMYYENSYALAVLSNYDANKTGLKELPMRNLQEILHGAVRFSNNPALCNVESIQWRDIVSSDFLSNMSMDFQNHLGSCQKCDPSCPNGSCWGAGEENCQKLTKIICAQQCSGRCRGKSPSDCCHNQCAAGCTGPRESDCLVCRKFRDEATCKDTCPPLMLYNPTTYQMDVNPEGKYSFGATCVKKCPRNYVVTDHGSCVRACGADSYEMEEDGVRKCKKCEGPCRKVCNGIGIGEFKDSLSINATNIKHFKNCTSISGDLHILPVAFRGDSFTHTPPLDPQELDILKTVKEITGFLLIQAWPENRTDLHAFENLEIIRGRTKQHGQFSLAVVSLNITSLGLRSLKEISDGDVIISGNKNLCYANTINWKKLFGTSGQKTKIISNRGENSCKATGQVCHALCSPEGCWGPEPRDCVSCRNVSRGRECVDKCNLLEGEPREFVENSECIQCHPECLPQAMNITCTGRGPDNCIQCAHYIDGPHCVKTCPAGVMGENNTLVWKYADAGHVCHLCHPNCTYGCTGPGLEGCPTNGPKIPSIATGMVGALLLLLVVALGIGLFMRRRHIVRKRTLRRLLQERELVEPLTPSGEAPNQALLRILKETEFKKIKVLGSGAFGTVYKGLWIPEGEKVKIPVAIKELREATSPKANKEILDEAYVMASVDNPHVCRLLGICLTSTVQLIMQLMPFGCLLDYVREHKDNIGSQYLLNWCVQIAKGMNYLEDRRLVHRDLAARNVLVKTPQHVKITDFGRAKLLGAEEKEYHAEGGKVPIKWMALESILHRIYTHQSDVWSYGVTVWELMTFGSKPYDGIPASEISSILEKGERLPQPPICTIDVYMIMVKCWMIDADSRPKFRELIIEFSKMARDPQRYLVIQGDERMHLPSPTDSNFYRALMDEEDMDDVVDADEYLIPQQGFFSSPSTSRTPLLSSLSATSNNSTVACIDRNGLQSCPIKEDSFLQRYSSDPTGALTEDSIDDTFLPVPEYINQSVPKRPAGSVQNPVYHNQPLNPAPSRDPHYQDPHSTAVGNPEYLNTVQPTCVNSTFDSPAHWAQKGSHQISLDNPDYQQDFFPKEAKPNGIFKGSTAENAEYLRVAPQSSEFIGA

Consider 36 compounds from patent US9890152B2 (Genentech, Inc., priority 2012, dated 2018).

Each structure is given as a SMILES string. Structures can show the parent of a compound that is named as a salt.

Regarding `COC1CCN(c2nccc(Nc3cc4c(cn3)c(C(=O)N3CCCC3)cn4C(C)C)n2)CC1` [Example 119, (1-isopropyl-6-((2-(4-methoxypiperidin-1-yl)pyrimidin-4-yl)amino)-1H-pyrrolo[3,2-c]pyridin-3-yl)(pyrrolidin-1-yl)methanone], the Ki came to 0.0172 µM. The figure for `COC1CCN(c2nccc(Nc3cc4c(cn3)c(C(=O)NC(C)C)cn4C(C)C)n2)CC1` [Example 120, N,1-diisopropyl-6-((2-(4-methoxypiperidin-1-yl)pyrimidin-4-yl)amino)-1H-pyrrolo[3,2-c]pyridine-3-carboxamide] is 0.0054 µM; for `COC1CCN(c2nccc(Nc3cc4c(cn3)c(C(=O)NCCO)cn4C(C)C)n2)CC1` [Example 121, N-(2-hydroxyethyl)-1-isopropyl-6-((2-(4-methoxypiperidin-1-yl)pyrimidin-4-yl)amino)-1H-pyrrolo[3,2-c]pyridine-3-carboxamide] it is 0.0075 µM. The figure for `CCN1CCN(C(=O)c2cn(C(C)C)c3cc(Nc4ccnc(N5CCC(OC)CC5)n4)ncc23)CC1` [Example 122, (4-ethylpiperazin-1-yl)(1-isopropyl-6-((2-(4-methoxypiperidin-1-yl)pyrimidin-4-yl)amino)-1H-pyrrolo[3,2-c]pyridin-3-yl)methanone] is 0.0442 µM; for `CCOC1CCN(c2nccc(Nc3cc4c(cn3)c(C(N)=O)cn4C(C)C)n2)CC1` [Example 123, 6-((2-(4-ethoxypiperidin-1-yl)pyrimidin-4-yl)amino)-1-isopropyl-1H-pyrrolo[3,2-c]pyridine-3-carboxamide] it is 0.0148 µM; for `CC(C)OC1CCN(c2nccc(Nc3cc4c(cn3)c(C(N)=O)cn4C(C)C)n2)CC1` [Example 124, 6-((2-(4-isopropoxypiperidin-1-yl)pyrimidin-4-yl)amino)-1-isopropyl-1H-pyrrolo[3,2-c]pyridine-3-carboxamide] it is 0.0255 µM.

Regarding `CC(C)n1cc(C(N)=O)c2cnc(Nc3ccnc(N4CCC(OC5CC5)CC4)n3)cc21` [Example 125, 6-((2-(4-cyclopropoxypiperidin-1-yl)pyrimidin-4-yl)amino)-1-isopropyl-1H-pyrrolo[3,2-c]pyridine-3-carboxamide], the Ki was 0.0203 µM. For `CC(C)n1cc(C(N)=O)c2cnc(Nc3ccnc(NC4CCS(=O)(=O)C4)n3)cc21` (stereo not drawn) [Example 126, 6-((2-((1,1-dioxidotetrahydrothiophen-3-yl)amino)pyrimidin-4-yl)amino)-1-isopropyl-1H-pyrrolo[3,2-c]pyridine-3-carboxamide], the Ki is 0.372 µM. As to `CC(C)n1ccc2cnc(Nc3ccnc(N(C)CCO)n3)cc21` [Example 127], the Ki was found to be 0.355 µM. The result for `CN(CCO)c1nccc(Nc2cc3c(ccn3-c3ccccc3)cn2)n1` [Example 128, 2-{Methyl-[4-(1-phenyl-1H-pyrrolo[3,2-c]pyridin-6-ylamino)pyrimidin-2-yl]amino}ethanol] reads 0.0593 µM; that for `CC(C)n1cnc2cnc(Nc3ccnc(N4CCCCC4)n3)cc21` [Example 130, (1-Isopropyl-1H-imidazo[4,5-c]pyridin-6-yl)-(2-piperidin-1-yl-pyrimidin-4-yl)amine], 0.0979 µM; that for `CC(C)n1cnc2cnc(Nc3ccnc(N4CCC(C(N)=O)CC4)n3)cc21` [Example 131, 1-[4-(1-Isopropyl-1H-imidazo[4,5-c]pyridin-6-ylamino)pyrimidin-2-yl]piperidine-4-carboxylic acid amide], 0.11 µM.

For `CC(C)n1cnc2cnc(Nc3ccnc(N4CCNC(=O)C4)n3)cc21` [Example 132, 4-[4-(1-Isopropyl-1H-imidazo[4,5-c]pyridin-6-ylamino)pyrimidin-2-yl]piperazin-2-one], the Ki was determined as 0.988 µM.

Consider `CC(C)n1cnc2cnc(Nc3ccnc(N4CCC(n5cccn5)CC4)n3)cc21` [Example 133, (1-Isopropyl-1H-imidazo[4,5-c]pyridin-6-yl)-[2-(4-pyrazol-1-ylpiperidin-1-yl)pyrimidin-4-yl]amine], for which the Ki worked out at 0.551 µM. The figure for `CC(C)n1cnc2cnc(Nc3ccnc(N4CCC(n5ccnc5)CC4)n3)cc21` [Example 134, [2-(4-Imidazol-1-yl-piperidin-1-yl)pyrimidin-4-yl]-(1-isopropyl-1H-imidazo[4,5-c]pyridin-6-yl)amine] is 0.109 µM; for `CC(C)n1cnc2cnc(Nc3ccnc(N4CCC(n5cncn5)CC4)n3)cc21` [Example 135, (1-Isopropyl-1H-imidazo[4,5-c]pyridin-6-yl)-[2-(4-[1,2,4]triazol-1-ylpiperidin-1-yl)pyrimidin-4-yl]amine] it is 0.101 µM; for `CC(C)n1cnc2cnc(Nc3ccnc(N4CCCCO4)n3)cc21` [Example 136, (1-Isopropyl-1H-imidazo[4,5-c]pyridin-6-yl)-(2-[1,2]oxazinan-2-ylpyrimidin-4-yl)amine] it is 1.68 µM. The figure for `CC(C)n1cnc2cnc(Nc3ccnc(N4CCSCC4)n3)cc21` [Example 137, (1-Isopropyl-1H-imidazo[4,5-c]pyridin-6-yl)-(2-thiomorpholin-4-ylpyrimidin-4-yl)amine] is 0.158 µM; for `CC(C)n1cnc2cnc(Nc3ccnc(N4CCC(CN(C)C)CC4)n3)cc21` [Example 138, {1-[4-(1-isopropyl-1H-imidazo[4,5-c]pyridin-6-ylamino)pyrimidin-2-yl]piperidin-4-ylmethyl}dimethylamtnonium formate] it is 1.54 µM; for `CC(C)n1cnc2cnc(Nc3ccnc(N4CCC(CCO)CC4)n3)cc21` [Example 139, 2-{1-[4-(1-Isopropyl-1H-imidazo[4,5-c]pyridin-6-ylamino)pyrimidin-2-yl]piperidin-4-yl}ethanol] it is 0.269 µM. The figure for `CN(CCO)c1nccc(Nc2cc3c(ccn3C3CCCC3)cn2)n1` [Example 140, formate salt] is 0.155 µM; for `CC(C)n1cnc2cnc(Nc3ccnc(N4CCC5(CCCO5)CC4)n3)cc21` [Example 141, (1-Isopropyl-1H-imidazo[4,5-c]pyridin-6-yl)-[2-(1-oxa-8-azaspiro[4.5]dec-8-yl)pyrimidin-4-yl]amine formate salt] it is 0.0205 µM. As for `CC(=O)N1CCN(c2nccc(Nc3cc4c(cn3)ncn4C(C)C)n2)CC1` [Example 142, 1-{4-[4-(l-Isopropyl-1H-imidazo[4,5-c]pyridin-6-ylamino)pyrimidin-2-yl]piperazin-1-yl}ethanone formate salt], the Ki was 1.12 µM. Consider `CC(C)n1cnc2cnc(Nc3ccnc(N4CCC(C(C)(C)O)CC4)n3)cc21` [Example 143, 2-{1-[4-(1-Isopropyl-1H-imidazo[4,5-c]pyridin-6-ylamino)-pyrimidin-2-yl]-piperidin-4-yl}-propan-2-ol], for which the Ki was determined as 0.512 µM.

On to `COC1(C)CCN(c2nccc(Nc3cc4c(cn3)ncn4C(C)C)n2)CC1` [Example 144, (1-Isopropyl-1H-imidazo[4,5-c]pyridin-6-yl)-[2-(4-methoxy-4-methylpiperidin-1-yl)pyrimidin-4-yl]amine], for which the Ki turned out to be 0.0326 µM. As to `CC(C)n1cnc2cnc(Nc3ccnc(N4CC(C#N)C4)n3)cc21` [Example 145, 1-[4-(1-Isopropyl-1H-imidazo[4,5-c]pyridin-6-ylamino)pyrimidin-2-yl]azetidine-3-carbonitrile], the Ki came to 1.07 µM. The figure for `CC(C)n1cnc2cnc(Nc3ccnc(N4CC(O)C4)n3)cc21` [Example 146, 1-[4-(1-Isopropyl-1H-imidazo[4,5-c]pyridin-6-ylamino)pyrimidin-2-yl]azetidin-3-ol] is 0.622 µM.

With `CC(C)n1cnc2cnc(Nc3ccnc(N[C@@H]4CCOC4)n3)cc21` [Example 147, N^4-(1-Isopropyl-1H-imidazo[4,5-c]pyridin-6-yl)-N^2-(R)-tetrahydrofuran-3-ylpyrimidine-2,4-diamine], the Ki was found to be 1.19 µM. The result for `CC(C)n1cnc2cnc(Nc3ccnc(N4CCC(C#N)CC4)n3)cc21` [Example 148, 1-[4-(1-Isopropyl-1H-imidazo[4,5-c]pyridin-6-ylamino)pyrimidin-2-yl]piperidine-4-carbonitrile] reads 0.283 µM; that for `COC1CCN(c2nccc(Nc3cc4c(cn3)ncn4CC(F)(F)F)n2)CC1` [Example 149, [2-(4-Methoxypiperidin-1-yl)-pyrimidin-4-yl]-[1-(2,2,2-trifluoroethyl)-1H-imidazo[4,5-c]pyridin-6-yl]amine formate salt], 0.0833 µM. The result for `COC1CCN(c2nccc(Nc3cc4c(cn3)ncn4C3CC3)n2)CC1` [Example 150, (1-Cyclopropyl-1H-imidazo[4,5-c]pyridin-6-yl)-[2-(4-methoxypiperidin-1-yl)pyrimidin-4-yl]amine formate salt] reads 0.0977 µM; that for `COC1CCN(c2nccc(Nc3cc4c(cn3)ncn4C3CCC3)n2)CC1` [Example 151, (1-Cyclobutyl-1H-imidazo[4,5-c]pyridin-6-yl)-[2-(4-methoxypiperidin-1-yl)pyrimidin-4-yl]amine formate salt], 0.0412 µM. For the compound `COC1CCN(c2nccc(Nc3cc4c(cn3)ncn4C3CCCCC3)n2)CC1` [Example 152, (1-Cyclohexyl-1H-imidazo[4,5-c]pyridin-6-yl)-[2-(4-methoxypiperidin-1-yl)pyrimidin-4-yl]amine], the Ki is 0.0113 µM. The result for `CC(C)n1cnc2cnc(Nc3ccnc(N4CCc5[nH]cnc5C4)n3)cc21` [Example 154] reads 0.171 µM; that for `CC(C)n1cnc2cnc(Nc3ccnc(N4CCC(N5CCCS5(=O)=O)CC4)n3)cc21` [Example 155, {2-[4-(1,1-Dioxo-1lambda^6-isothiazolidin-2-yl)piperidin-1-yl]pyrimidin-4-yl}-(1-isopropyl-1H-imidazo[4,5-c]pyridin-6-yl)amine formate salt], 0.734 µM; that for `COCCOC1CCN(c2nccc(Nc3cc4c(cn3)ncn4C(C)C)n2)CC1` [Example 156, (1-Isopropyl-1H-imidazo[4,5-c]pyridin-6-yl)-{2-[4-(2-methoxyethoxy)piperidin-1-yl]pyrimidin-4-yl}amine], 0.166 µM.
